Assays:
[1] = biological target: recombinant ETA receptor (Homo sapiens, UniProt P25101); experiment: cell-based
[2] = biological target: ET receptors in human primary PASMC (Homo sapiens, UniProt P25101); experiment: cell-based; details: ET-1 EC50–EC70

Amino acid sequences for entries named in this document (tags omitted). Residues count along the entry.
UniProt P25101, 21-427: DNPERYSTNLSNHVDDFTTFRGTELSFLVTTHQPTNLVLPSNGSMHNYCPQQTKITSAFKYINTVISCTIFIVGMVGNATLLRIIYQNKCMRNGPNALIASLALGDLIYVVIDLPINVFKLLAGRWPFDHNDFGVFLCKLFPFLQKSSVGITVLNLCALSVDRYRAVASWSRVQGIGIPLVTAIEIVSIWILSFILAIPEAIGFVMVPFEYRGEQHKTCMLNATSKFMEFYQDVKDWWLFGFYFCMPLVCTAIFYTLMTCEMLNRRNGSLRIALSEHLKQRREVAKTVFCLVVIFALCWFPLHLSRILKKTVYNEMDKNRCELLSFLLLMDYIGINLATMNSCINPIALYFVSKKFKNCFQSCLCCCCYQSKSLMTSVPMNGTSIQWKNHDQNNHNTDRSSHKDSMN

COc1nc(C)cnc1NS(=O)(=O)c1cccnc1-c1ccc(-c2nnco2)cc1 [zibotentan]
Kb [1]: 8.5 nM
Kb ([2]; Kb 10 min, 10 min antagonist pre-incubation, geometric mean n = 6): 0.65 nM
Kb ([2]; Kb 120 min, 120 min antagonist pre-incubation (steady state), geometric mean n = 6): 0.87 nM
Kb ([2]; Kb PASMC, Table 1, 120 min antagonist pre-incubation, from IC50 via Cheng-Prusoff, geometric mean n = 3–8): 0.87 nM
